The assay deals with recombinant human NK3 receptor (Homo sapiens, UniProt P29371). Put plainly: [3H]SR142801 competition binding assay. The settings on record: read-out: Data Ki, hNK-3 receptor affinity, membranes from HEK293 cells transiently expressing recombinant human NK3 receptor, Cheng-Prussoff.

Protein sequences, listed by entry. Tags and fused reporters are not part of them.
UniProt P29371, whole entry, looked up: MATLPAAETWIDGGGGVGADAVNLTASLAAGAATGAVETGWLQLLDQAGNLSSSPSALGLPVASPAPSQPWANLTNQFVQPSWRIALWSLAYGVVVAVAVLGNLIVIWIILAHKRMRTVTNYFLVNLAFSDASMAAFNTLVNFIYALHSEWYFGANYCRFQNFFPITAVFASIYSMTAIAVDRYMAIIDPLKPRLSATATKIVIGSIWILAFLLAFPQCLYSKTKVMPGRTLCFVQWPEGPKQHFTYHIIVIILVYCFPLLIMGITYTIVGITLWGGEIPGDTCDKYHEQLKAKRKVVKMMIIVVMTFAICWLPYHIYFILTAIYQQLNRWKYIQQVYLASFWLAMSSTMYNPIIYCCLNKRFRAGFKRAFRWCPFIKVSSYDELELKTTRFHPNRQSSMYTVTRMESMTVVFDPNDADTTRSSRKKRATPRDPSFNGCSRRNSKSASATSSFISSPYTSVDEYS

Data on 13 molecules can be found in patent US9226916B2, “Pyrrolidine derivatives” (HOFFMANN-LA ROCHE INC., priority 2009, dated 2016).

Structures are written as SMILES. pKi: −log10 of the molar value.

For orientation: pKi means −log10 of the Ki, conventionally taken in molar units. For `CN(C(=O)Oc1ccc(C(F)(F)F)nc1)[C@H]1CN(C(=O)C2CCN(C(=O)C3(C)CC3)CC2)C[C@@H]1c1ccc(Cl)c(Cl)c1` (racemic), the pKi is 8.55. Turning to `CN(C(=O)Oc1cccnc1F)[C@@H]1CN(C(=O)C2CCN(C(=O)C3(C)CC3)CC2)C[C@H]1c1ccc(Cl)c(Cl)c1`, the pKi is 7.12. As for `CN(C(=O)Oc1cncc(F)c1)[C@@H]1CN(C(=O)C2CCN(C(=O)C3(C)CC3)CC2)C[C@H]1c1ccc(Cl)c(Cl)c1`, the negative logarithm of the Ki (pKi) was 7.64.

`CN(C(=O)Oc1ccc(C(F)(F)F)nc1)[C@@H]1CN(C(=O)C2CCN(C(=O)C3(C)CC3)CC2)C[C@H]1c1ccc(Cl)c(Cl)c1`: the pKi was 8.59.

In the case of `Cc1ccc(OC(=O)N(C)[C@@H]2CN(C(=O)C3CCN(C(=O)C4(C)CC4)CC3)C[C@H]2c2ccc(Cl)c(Cl)c2)cn1`, the negative-log Ki (pKi) was 8.08.

On to `Cc1ccc(OC(=O)N(C)[C@@H]2CN(C(=O)C3CCN(C(=O)C4(C)CC4)CC3)C[C@H]2c2ccc(Cl)c(Cl)c2)c(F)n1`, for which the pKi is 8.26. As for `CN(C(=O)Oc1cccnc1Cl)[C@@H]1CN(C(=O)C2CCN(C(=O)C3(C)CC3)CC2)C[C@H]1c1ccc(Cl)c(Cl)c1`, the pKi is 7.73. For the molecule `Cc1ccc(OC(=O)N(C)[C@@H]2CN(C(=O)C3CCN(C(=O)C4(C)CC4)CC3)C[C@H]2c2ccc(Cl)c(Cl)c2)c(C)n1`, the pKi is 7.42. With `CN(C(=O)Oc1cccnc1)[C@@H]1CN(C(=O)C2CCN(C(=O)C3(C)CC3)CC2)C[C@H]1c1ccc(Cl)c(Cl)c1` the figure was 7.35; with `CN(C(=O)Oc1cccnc1C#N)[C@@H]1CN(C(=O)C2CCN(C(=O)C3(C)CC3)CC2)C[C@H]1c1ccc(Cl)c(Cl)c1`, 6.68. As for `CN(C(=O)Oc1ccc(Cl)nc1)[C@@H]1CN(C(=O)C2CCN(C(=O)C3(C)CC3)CC2)C[C@H]1c1ccc(Cl)c(Cl)c1`, the figure is 9.10; as for `CN(C(=O)Oc1ccc(Cl)nc1)[C@H]1CN(C(=O)C2CCN(C(=O)C3(C)CC3)CC2)C[C@@H]1c1ccc(Cl)c(Cl)c1` (racemic), 8.47. As to `CN(C(=O)Oc1cc(F)cnc1Cl)[C@@H]1CN(C(=O)C2CCN(C(=O)C3(C)CC3)CC2)C[C@H]1c1ccc(Cl)c(Cl)c1`, the negative-log Ki (pKi) was 7.67.
